The values below come from PMC10144572, “Targeted Metabolomics of Organophosphate Pesticides and Chemical Warfare Nerve Agent Simulants Using High- and Low-Dose Exposure in Human Liver Microsomes” (2023).

Data set [1] deals with human liver microsomes (HLMs). Put plainly: Low-dose (LC-MS/MS) metabolism / intrinsic clearance in human liver microsomes. The note with it: for metabolism / decay type: low dose regimen; for fast clearance rate / slower clearance rate: low-dose studies, biphasic decay; for fast clearance rate: fast phase (malathion 0.17 mM); for slower clearance rate: slow phase (malathion 0.17 mM); for % Remaining (data based on MS): percent of OP remaining after incubation, low-dose regimen. For orientation: Liver microsomes are a subcellular fraction often used to study metabolism.

The conditions of data set [2]: 5 mM.

`COP(=S)(OC)SCC(=O)N(C)C=O`: in data set [1], the “metabolism / decay type” value is listed as “biphasic”, the fast clearance rate is given as 24.56 µL/min/mg and the slower clearance rate came to 3.50 µL/min/mg.

Take `CCOP(=S)(OCC)Oc1nc(Cl)c(Cl)cc1Cl`: the “Water solubility at the high concentration (NA in NMR columns)” value (shortened to “Water solubility”) in data set [2] is reported as “NA (NA for OPs that were not water soluble at the high concentration)”.

As to Phosphamidon-I, the “metabolism / decay type” value in data set [1] is “monophasic”.

On to `CCOP(=S)(OCC)Oc1ccc(=O)n(-c2ccccc2)n1`, for which the “% Remaining (data based on MS)” value in data set [1] was determined as 45.00%.

As to `CCOP(=O)(N=C1SCCS1)OCC`, the “% Remaining (data based on MS)” value in data set [1] worked out at 95.00%.

`CC(C)OP(=O)(OC(C)C)SCc1ccccc1`: the “% Remaining (data based on MS)” value in data set [1] was determined as 79.00%.

For `CCCCSP(SCCCC)SCCCC`, the “metabolism / decay type” value in data set [1] is listed as “biphasic”. Besides, the “% Remaining (data based on MS)” value in data set [1] (listed as Merphos-Fast) was determined as 72.00%.

Turning to `COP(=S)(OC)Oc1cc(Cl)c(I)cc1Cl`, in data set [1] (listed as IFP-Fast), the “% Remaining (data based on MS)” value came to 74.31%.

Consider `CCOP(=S)(OCC)ON=C(C#N)c1ccccc1Cl`, for which, in data set [2], the “Water solubility” value was “NA (NA for OPs that were not water soluble at the high concentration)”. Also, the “% Remaining (data based on MS)” value in data set [1] was 20.00%.

With `COc1nn(CSP(=S)(OC)OC)c(=O)s1`, the “% Remaining (data based on MS)” value in data set [1] is 46.50%.

For the compound `COP(=S)(OC)Oc1ccc(SC)c(C)c1`, the “% Remaining (data based on MS)” value in data set [1] is 23.00%.

In the case of `CCCCSP(=O)(SCCCC)SCCCC`, the “% Remaining (data based on MS)” value in data set [1] (listed as Tribufos-Fast) stood at 10.00%.

For `CCOP(=S)(OCC)Oc1cnc2ccccc2n1`, the “% Remaining (data based on MS)” value in data set [1] was 15.45%.

As for Dibrom, the “metabolism / decay type” value in data set [1] was “biphasic”. Further, in data set [1] (listed as Dibrom-Fast), the “% Remaining (data based on MS)” value is 23.00%.

As to `COP(=S)(OC)SCN1C(=O)c2ccccc2C1=O`, the “Water solubility” value in data set [2] is recorded as “NA (NA for OPs that were not water soluble at the high concentration)”.

As to `CCOP(=S)(OCC)Oc1cc(C)nc(C(C)C)n1`, in data set [1], the “% Remaining (data based on MS)” value was found to be 32.00%.

With `COP(=O)(OC)OC1=C(Cl)C2C=CCC12` (stereo not drawn), the “% Remaining (data based on MS)” value in data set [1] was 60.00%.

On to `CCOP(=O)(NC(C)C)Oc1ccc(SC)c(C)c1` (stereo not drawn), for which the “% Remaining (data based on MS)” value in data set [1] was determined as 50.00%.

On to `CNP(=O)(OC)Oc1ccc(C(C)(C)C)cc1Cl` (stereo not drawn), for which the “% Remaining (data based on MS)” value in data set [1] was determined as 20.00%.

In the case of `COP(=S)(OC)Oc1ccc(Sc2ccc(OP(=S)(OC)OC)cc2)cc1`, the “% Remaining (data based on MS)” value in data set [1] is on record as 11.00%.

For `CCOP(=S)(OCC)Oc1cc(C)nc(N(CC)CC)n1`, the “Water solubility” value in data set [2] is recorded as “NA (NA for OPs that were not water soluble at the high concentration)”. Moreover, the “% Remaining (data based on MS)” value in data set [1] (listed as PPE-Fast) is reported as 60.00%.

Take `COP(=O)(OC)O/C(=C\Cl)c1cc(Cl)c(Cl)cc1Cl`: the “Water solubility” value in data set [2] was “NA (NA for OPs that were not water soluble at the high concentration)”. In addition, the “% Remaining (data based on MS)” value in data set [1] was 60.00%.

As to `CCOC(=O)c1cn2nc(OP(=S)(OCC)OCC)cc2nc1C`, the “% Remaining (data based on MS)” value in data set [1] is given as 42.00%.

Regarding Phosphamidon-II, in data set [1], the “metabolism / decay type” value is given as “monophasic” and the “% Remaining (data based on MS)” value is 22.00%.

Take `CCCSP(=O)(OCC)SCCC`: the “Water solubility” value in data set [2] was “NA (NA for OPs that were not water soluble at the high concentration)”.

Consider `CCOC(=O)CC(SP(=S)(OC)OC)C(=O)OCC` (stereo not drawn), for which, in data set [1], the fast clearance rate stood at 2245.5 µL/min/mg and the slower clearance rate came to 10.09 µL/min/mg. Further, the “% Remaining (data based on MS)” value in data set [1] (listed as Malathion-Fast) came to 20.00%.

For `CCOP(=S)(Oc1ccc(C#N)cc1)c1ccccc1` (stereo not drawn), the “% Remaining (data based on MS)” value in data set [1] was 20.00%.

For `CCOP(=O)(N=C1SCC(C)S1)OCC` (stereo not drawn), in data set [1], the “% Remaining (data based on MS)” value turned out to be 96.00%.

For the compound `COP(=O)(NC(C)=O)SC` (stereo not drawn), the “% Remaining (data based on MS)” value in data set [1] is recorded as 91.90%.
